The numbers were not newly measured in US9511027B1, “Calcium supplement having enhanced absorption” (Delavau L.L.C., priority 2006, dated 2016), which cites them from elsewhere.

For the data set the following is noted: adult men and postmenopausal women; Heaney et al. 1999.

Turning to calcium carbonate [reference compound], the absorption efficiency result is given as “about 34.2%±10.1”.
